Data on one compound can be found in patent US8178692B2.

`O=C1N=CN=N1`: the “solubility in formic acid compared with water” value (FIG. 1, difference greater at lower temperatures) is reported as “much more soluble in formic acid than it is in water”. In addition, the “solubility of the product in ethanol” value (ethanol, 76° C., single data point of FIG. 1) worked out at 6%.
